“And” between values parts separate entries of the source, which are not always exact repeats. Equal values may be shown once.
How the values were obtained:
[1] = target: T1, human 5HT1A receptor (Homo sapiens, UniProt P08908); assay: Radioligand binding to the 5-HT1A receptor, [3H]8-OH-DPAT; settings: Example 77; membranes of HEK293 cells, [3H]8-OH-DPAT 0.5 nM; <5 = not active at up to 10 μM
Description: Frozen membranes of HEK293 cells, stably-transfected with human 5-HT1A receptor (Perkin Elmer) were thawed on ice, briefly homogenised with an Ultra Turrax homogeniser and then suspended in Tris-HCl buffer (50 mM pH 7.7) supplemented with CaCl2 (4 mM) at an appropriate pre-determined protein concentration (5-10 μg protein per incubation mixture). Together with [^3H]8-OH-DPAT (0.5 nM final concentration; Perkin Elmer, USA), the membrane suspension was added to the test compound and incubated (30 min at 37° C.) in a total volume of 400 μl. Non-specific binding was determined in the presence of Spiroxatrine (1 μM). Free radioligand was separated from the radioligand-receptor complex by means of rapid vacuum filtration over GF/B unifilter plates with a Packard Harvester Filtration Unit. Unifilter plates were washed with ice cold Tris-HCl buffer (50 mM, pH 8.0) and then dried overnight. Bound counts were measured in a Topcount Scintillation Counter in the presence of Microscint O.

By UniProt entry, the sequences of proteins in these tests, tags left out.
UniProt P08908, whole entry: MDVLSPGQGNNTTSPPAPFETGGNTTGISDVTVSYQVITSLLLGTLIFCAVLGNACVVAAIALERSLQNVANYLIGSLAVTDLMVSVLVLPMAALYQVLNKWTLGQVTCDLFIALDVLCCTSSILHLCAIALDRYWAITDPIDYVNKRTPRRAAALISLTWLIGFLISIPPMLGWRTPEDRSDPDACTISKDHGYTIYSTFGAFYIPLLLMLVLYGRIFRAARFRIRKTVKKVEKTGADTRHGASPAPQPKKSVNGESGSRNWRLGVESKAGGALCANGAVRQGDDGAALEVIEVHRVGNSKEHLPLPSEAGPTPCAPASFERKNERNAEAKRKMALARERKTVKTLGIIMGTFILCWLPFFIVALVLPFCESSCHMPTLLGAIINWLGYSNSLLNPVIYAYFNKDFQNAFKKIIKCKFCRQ
UniProt P31645, whole entry: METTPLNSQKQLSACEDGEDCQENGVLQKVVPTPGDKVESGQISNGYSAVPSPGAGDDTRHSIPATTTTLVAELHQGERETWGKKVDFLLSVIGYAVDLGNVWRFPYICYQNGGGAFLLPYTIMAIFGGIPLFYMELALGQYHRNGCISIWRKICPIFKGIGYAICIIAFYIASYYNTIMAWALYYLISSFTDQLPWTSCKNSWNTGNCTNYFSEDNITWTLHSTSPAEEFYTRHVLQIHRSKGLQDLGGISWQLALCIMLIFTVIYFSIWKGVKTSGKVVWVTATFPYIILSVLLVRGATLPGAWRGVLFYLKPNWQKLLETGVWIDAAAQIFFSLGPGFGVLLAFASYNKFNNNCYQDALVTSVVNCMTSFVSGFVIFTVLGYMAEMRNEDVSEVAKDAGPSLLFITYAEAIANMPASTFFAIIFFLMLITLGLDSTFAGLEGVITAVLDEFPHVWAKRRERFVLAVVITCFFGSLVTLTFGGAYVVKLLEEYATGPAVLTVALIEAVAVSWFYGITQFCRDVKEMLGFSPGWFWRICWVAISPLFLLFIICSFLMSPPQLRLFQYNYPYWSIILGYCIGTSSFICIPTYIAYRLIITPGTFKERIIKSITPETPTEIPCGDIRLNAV

[2] = target: human 5-HTT (Homo sapiens, UniProt P31645); assay: Radioligand binding to 5-HTT (serotonin transporter, SERT), [3H]Paroxetine; settings: Example 77; membranes of HEK293 cells, [3H]Paroxetine 0.5 nM; <5 = not active at up to 10 μM
Description: For 5-HTT binding, frozen membranes of HEK293 cells stably-transfected with human 5-HTT (Perkin-Elmer, USA) were thawed on ice, briefly homogenised and resuspended in Tris-HCl buffer (50 mM, pH 7.4) supplemented with NaCl (120 mM) and KCl (5 mM) at a concentration of 50 μg protein per incubation mixture. The membrane suspension was added to the test compound together with [^3H]Paroxetine (0.5 nM) in a total volume of 250 μl and incubated (60 min, 25° C.). Non-specific binding was determined in the presence of imipramine (1 μM). Filtration was done over pre-soaked GF/B unifilters (0.01% PEI) and washed as above with the Tris-HCl salt buffer used for the incubation. Specific binding was calculated and sigmoidal curves were plotted by an internally-developed software program based on S-plus software. Ki values were calculated using the Cheng-Prusoff equation.

[3] = target: T1, human 5HT1A receptor; assay: [35S]GTPγS binding for 5-HT1A receptor inhibition (antagonist mode); settings: Example 78, HEK293 membranes, antagonist mode with serotonin 100 nM, <5 = not active at up to 10 μM
Description: Compounds showing affinity at the 5-HT1A receptor were tested for functional agonism and antagonism in a [^35S]GTPγS (guanine triphosphate (non-hydrolysable, labelled with ^35S) binding assay on membranes of HEK293 cells permanently transfected with human 5HT1A receptor (Perkin Elmer, USA).
Frozen membranes were thawed, briefly homogenized and were diluted in incubation buffer, 100 mM NaCl, 0.3 mM MgCl2 and 10 μM guanine diphosphate (GDP), pH 7.4-7.5) supplemented with 10 μg/ml saponin. Assay mixtures contained 10 μg of membrane protein and test compound, buffer, or control agonist (serotonin, 10 μM). For the antagonistic assay, control agonist was present in all wells containing compound at a sub-maximal concentration (serotonin, 100 nM). After 20 minutes pre-incubation at 37° C., [^35S]GTPγS was added to a final concentration of 0.25 nM, briefly shaken and further incubated for another 20 minutes. Reactions were terminated by rapid vacuum filtration through GF/B unifilter plates using a Packard Harvester. Filters were washed three times with wash buffer (10 mM NaH2PO4, 10 mM Na2HPO4, pH 7.4), dried overnight and bound counts were measured in a Topcount Scintillation Counter in the presence of Microscint O. % Specific Binding was calculated and curves were plotted with help of in house software where pIC50 values were determined and Kb values were calculated.

Compound	h5HT1A pIC50 [1]	h5HTT pIC50 [2]	h5HT1A Antagonist pIC50 [3]
O[C@@H](COc1cccc2[nH]ccc12)CN1C[C@@H]2CC=CC[C@H]1CN2c1ccc2ccccc2c1	<5	6.33	–
Clc1ccc(N2C[C@@H]3CC=CC[C@H]2CN3)cc1Cl	<5	7.31	–
O[C@H](COc1ccnc2ccccc12)CN1C[C@@H]2CC=CC[C@H]1CN2c1ccc2ccccc2c1	<5	6.66	–
Cc1cc2c(OC[C@@H](O)CN3C[C@@H]4CCCC[C@H]3CN4c3ccc4ccccc4c3)cccc2[nH]1	6.83 and 6.61	6.72 and 6.99	–
COc1ccc(CN2C(=O)[C@@H]3CC=CC[C@H]2C(=O)N3c2ccccc2)c(OC)c1	<5	<5	–

Next, values leading:

h5HT1A pIC50 [1]	h5HTT pIC50 [2]	h5HT1A Antagonist pIC50 [3]	Compound
7.31 and 7.04 and 7.22	7.63 and 7.76 and 7.5	–	Cc1cc2c(OC[C@@H](O)CN3C[C@@H]4CC=CC[C@H]3CN4c3ccc4ccccc4c3)cccc2[nH]1
–	7.43 and 7.49	5.18 and 5.37	O[C@H](COc1cccc2[nH]ccc12)CN1C[C@@H]2CC=CC[C@H]1CN2c1ccc2ccccc2c1
5.04	6.26	<5	COc1ccc2cc(N3C[C@@H]4CC=CC[C@H]3CN4CCc3ccc(F)cc3)ccc2c1
